# Source: publication PMC9394474 (2022)
# B1: rbGYG1 VR-CIV (domain or fragment)
# chain: NVWWDIFTTSVVPLLQQFGLVQDTCSYQHVEDVSGAVSHLSLGETPATTQPFVSSEERKERWEQGQADYMGADSFDNIKKKLDTYLQ
# Target: human hisTRIM7- (human, UniProt Q9C029 342-511)
# Assay: ITC
binder,measurement,value
B1,Kd,2600 nM
